Experimental data taken from patent US10654807B2, “Toll-like receptor 8 agonists” (The University Of Kansas, priority 2013, dated 2020).

The chains behind the UniProt entries cited, without tags or fusion partners. Residues count along the entry.
UniProt Q9NYK1, 27-1049: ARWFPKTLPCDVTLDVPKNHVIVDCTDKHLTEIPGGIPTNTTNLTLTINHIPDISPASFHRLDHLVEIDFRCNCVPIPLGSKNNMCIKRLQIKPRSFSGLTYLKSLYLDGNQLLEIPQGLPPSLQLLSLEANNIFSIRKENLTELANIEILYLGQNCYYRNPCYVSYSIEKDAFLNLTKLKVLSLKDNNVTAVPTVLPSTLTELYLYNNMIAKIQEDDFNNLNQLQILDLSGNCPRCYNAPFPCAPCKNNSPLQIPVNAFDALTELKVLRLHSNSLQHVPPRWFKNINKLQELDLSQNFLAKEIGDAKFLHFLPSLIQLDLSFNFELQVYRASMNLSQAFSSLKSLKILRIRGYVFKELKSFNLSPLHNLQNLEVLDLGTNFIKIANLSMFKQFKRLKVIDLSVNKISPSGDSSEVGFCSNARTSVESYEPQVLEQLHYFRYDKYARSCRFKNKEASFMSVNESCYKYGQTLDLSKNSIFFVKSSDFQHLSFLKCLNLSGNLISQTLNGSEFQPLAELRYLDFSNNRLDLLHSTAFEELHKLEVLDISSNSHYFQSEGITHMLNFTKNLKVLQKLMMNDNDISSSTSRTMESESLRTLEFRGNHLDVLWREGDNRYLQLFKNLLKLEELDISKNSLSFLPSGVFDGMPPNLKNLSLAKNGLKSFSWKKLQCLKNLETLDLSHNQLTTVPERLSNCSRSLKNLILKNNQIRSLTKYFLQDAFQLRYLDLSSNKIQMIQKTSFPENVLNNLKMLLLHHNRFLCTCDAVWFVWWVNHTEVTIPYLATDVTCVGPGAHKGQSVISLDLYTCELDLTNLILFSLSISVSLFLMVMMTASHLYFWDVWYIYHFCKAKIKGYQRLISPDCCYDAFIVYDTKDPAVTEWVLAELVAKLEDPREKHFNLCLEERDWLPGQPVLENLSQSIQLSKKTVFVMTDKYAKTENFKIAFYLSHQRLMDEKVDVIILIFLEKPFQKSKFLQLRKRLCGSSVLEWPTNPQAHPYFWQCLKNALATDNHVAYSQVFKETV

How the values were obtained:
[1] = test system: TLR7/TLR8; settings: background statement; cited from earlier work
[2] = target: T1, human TLR8 (Homo sapiens, UniProt Q9NR97); test: human TLR8-specific HEK-Blue reporter gene assay (NF-κB induction); assay type: cell-based; settings: TLR8 primary screen
T1 construct: HEK293 cells stably co-transfected with the appropriate hTLR, MD2, and secreted alkaline phosphatase (sAP); expressed in transfected cells; host or cells: HEK293 (HEK-Blue™)
T1 sequence (Q9NR97 27-1041): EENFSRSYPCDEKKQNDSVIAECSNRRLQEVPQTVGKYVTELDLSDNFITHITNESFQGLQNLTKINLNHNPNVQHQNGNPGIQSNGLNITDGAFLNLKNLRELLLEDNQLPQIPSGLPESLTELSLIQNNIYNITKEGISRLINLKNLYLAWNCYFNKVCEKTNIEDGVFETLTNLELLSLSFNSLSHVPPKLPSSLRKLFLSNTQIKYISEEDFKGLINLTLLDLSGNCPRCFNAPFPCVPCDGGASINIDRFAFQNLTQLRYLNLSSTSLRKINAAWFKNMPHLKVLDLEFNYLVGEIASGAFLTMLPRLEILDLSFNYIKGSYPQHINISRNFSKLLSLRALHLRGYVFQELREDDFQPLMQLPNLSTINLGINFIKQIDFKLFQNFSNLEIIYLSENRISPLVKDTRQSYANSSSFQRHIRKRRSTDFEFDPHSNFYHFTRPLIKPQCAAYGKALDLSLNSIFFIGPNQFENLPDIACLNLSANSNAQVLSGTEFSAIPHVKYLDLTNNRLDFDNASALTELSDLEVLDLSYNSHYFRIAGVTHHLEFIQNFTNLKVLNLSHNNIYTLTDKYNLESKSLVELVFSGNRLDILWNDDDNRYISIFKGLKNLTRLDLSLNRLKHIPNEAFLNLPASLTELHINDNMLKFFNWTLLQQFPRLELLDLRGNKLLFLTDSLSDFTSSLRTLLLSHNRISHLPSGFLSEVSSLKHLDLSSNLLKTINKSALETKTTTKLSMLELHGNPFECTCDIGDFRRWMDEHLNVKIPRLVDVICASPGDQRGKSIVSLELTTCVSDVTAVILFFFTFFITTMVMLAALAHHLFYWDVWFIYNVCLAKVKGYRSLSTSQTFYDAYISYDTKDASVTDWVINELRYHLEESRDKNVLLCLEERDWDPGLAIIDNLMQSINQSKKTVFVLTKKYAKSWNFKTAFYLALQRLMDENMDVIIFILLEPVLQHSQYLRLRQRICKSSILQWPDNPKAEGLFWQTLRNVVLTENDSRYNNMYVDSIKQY

[3] = target: human TLR7 (Homo sapiens, UniProt Q9NYK1)

For CCOCc1nc2c(N)nc3ccccc3c2[nH]1 [Compound 2], the “TLR7/TLR8 agonism profile described” value [1] is listed as “mixed TLR7/TLR8-agonism”.
For CCCCc1cc2c(o1)c(N)nc1ccccc12 [Compound A8d, 2-butylfuro[2,3-c]quinolin-4-amine], the “TLR8 agonistic activity” value [2] was “pure TLR8 agonistic activity” and the TLR7 agonistic activity [3] was “devoid of TLR7-stimulatory activities”.
